One series deals with PDGFRα (Homo sapiens (Human), UniProt P16234). As to the kind of experiment: PDGFRα kinase enzyme assay (Promega PDGFRα Kinase Enzyme System, ADP-Glo). The following applies: read-out: IC50 Values on PDGFRα Kinase Inhibition, IC50; 11-point dose response, 10,000 nM to 0.169 nM; 150 uM ATP; BLQ = below limit of quantitation. It counts as biochemical. (In general: ADP-Glo first removes unused ATP, then detects ADP through luciferase.)

Chains of the proteins cited; added tags and fusions are not shown. Residues count along the entry.
UniProt P16234, 24-1089 limits assumed: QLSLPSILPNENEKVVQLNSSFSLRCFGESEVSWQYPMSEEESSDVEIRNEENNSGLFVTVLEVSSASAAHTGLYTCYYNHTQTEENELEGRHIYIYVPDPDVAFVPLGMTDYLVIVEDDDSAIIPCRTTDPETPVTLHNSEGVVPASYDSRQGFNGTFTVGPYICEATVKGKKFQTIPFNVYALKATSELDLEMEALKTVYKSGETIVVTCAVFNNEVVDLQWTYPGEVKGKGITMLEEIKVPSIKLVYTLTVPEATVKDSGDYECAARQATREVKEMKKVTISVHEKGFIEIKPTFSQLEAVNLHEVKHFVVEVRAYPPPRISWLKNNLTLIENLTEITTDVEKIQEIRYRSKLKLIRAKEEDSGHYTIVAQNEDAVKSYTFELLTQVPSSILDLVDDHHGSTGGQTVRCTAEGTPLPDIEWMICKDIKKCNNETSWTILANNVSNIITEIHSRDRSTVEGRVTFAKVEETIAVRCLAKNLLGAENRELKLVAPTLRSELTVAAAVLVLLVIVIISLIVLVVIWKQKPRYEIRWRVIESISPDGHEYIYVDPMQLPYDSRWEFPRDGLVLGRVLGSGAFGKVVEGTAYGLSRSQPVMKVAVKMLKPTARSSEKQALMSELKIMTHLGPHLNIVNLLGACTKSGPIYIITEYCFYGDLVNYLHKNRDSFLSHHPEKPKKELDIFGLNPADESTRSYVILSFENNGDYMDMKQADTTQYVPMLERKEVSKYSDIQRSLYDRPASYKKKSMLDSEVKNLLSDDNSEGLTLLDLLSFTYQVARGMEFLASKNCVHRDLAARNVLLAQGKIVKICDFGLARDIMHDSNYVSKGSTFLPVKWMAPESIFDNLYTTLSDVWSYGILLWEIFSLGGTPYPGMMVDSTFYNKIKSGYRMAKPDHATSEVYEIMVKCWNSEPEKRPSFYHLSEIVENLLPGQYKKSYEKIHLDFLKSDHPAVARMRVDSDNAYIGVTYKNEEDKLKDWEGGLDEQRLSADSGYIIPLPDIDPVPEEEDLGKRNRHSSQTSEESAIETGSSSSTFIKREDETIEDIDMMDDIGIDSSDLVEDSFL

Series [1] deals with Oligodendrocyte progenitor cells (OPCs). As to the kind of experiment: In vitro OPC differentiation assay, GPR17 expression (immunocytochemistry). Type of series: cell-based, rat.

Broadly, the IC50 is the concentration needed to halve the response being measured. The term fold induction denotes the ratio of treated to control signal. As to `CC(C)(C)OC(=O)N1CCN(c2cnc3cc(-c4cccnc4)ncn23)CC1`, the IC50 on PDGFRα was 1440 nM. Further, in series [1], the fold induction was found to be 1.33.
